These are literature values, as cited in US20230226072A1 (priority 2020, published 2023).

The conditions of this data set: after oral administration; cited from earlier work.

As for `CN(C)c1ccc2nc3ccc(N(C)C)cc3[s+]c2c1.[Cl-]` [methylene blue, [7-(dimethylamino)phenothiazin-3-ylidene]-dimethylazanium; chloride], the “time of peak plasma concentrations” value is “two”.
